Experimental data as given in PubChem BioAssay AID743261 (The Scripps Research Institute Molecular Screening Center, 2014).
The entries are a selection whose mix differs from that of the whole data set. Active and inactive are the calls of the source. Cut-off read from the data, not from the text of the source: active = inhibition above about 11%; inactive = the rest.

Amino acid sequences for entries named in this document (tags omitted).
UniProt Q01970, whole entry: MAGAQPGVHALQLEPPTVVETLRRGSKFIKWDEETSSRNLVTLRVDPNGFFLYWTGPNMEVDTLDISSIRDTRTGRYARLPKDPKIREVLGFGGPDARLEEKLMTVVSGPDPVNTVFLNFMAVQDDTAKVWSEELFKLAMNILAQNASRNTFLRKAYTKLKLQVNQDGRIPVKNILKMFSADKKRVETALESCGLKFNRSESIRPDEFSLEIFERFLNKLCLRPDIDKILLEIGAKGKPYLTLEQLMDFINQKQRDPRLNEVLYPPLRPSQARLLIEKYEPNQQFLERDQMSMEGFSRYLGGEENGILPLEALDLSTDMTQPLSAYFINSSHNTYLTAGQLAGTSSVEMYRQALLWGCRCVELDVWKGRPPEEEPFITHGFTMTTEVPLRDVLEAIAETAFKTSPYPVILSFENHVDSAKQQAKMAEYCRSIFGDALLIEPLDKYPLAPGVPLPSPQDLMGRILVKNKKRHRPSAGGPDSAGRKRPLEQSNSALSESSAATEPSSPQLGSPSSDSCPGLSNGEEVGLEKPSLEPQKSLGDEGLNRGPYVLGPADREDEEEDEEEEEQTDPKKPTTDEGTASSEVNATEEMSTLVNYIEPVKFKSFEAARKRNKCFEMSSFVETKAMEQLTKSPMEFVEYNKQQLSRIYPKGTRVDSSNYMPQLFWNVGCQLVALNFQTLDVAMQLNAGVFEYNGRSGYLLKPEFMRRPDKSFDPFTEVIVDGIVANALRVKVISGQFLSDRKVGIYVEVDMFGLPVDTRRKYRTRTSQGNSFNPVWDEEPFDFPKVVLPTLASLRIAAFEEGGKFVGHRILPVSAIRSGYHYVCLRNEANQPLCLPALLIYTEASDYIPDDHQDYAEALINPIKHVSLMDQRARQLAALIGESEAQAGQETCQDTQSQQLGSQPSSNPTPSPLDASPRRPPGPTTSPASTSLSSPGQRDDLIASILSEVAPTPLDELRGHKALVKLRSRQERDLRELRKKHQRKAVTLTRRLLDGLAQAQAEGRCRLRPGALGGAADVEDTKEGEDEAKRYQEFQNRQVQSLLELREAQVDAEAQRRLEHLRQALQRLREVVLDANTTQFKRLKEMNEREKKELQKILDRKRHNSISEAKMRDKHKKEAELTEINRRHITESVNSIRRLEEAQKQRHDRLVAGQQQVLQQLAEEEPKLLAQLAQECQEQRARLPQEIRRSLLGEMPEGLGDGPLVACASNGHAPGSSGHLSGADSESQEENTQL

These compounds were tested against 1-phosphatidylinositol 4,5-bisphosphate phosphodiesterase beta-3 (Homo sapiens) (UniProt Q01970) (assay: retest of human PLCB3 enzyme blockers – biochemical, fluorescence, purified enzyme, confirmation (AID 743261)). Conditions: purified PLC-beta3, fluorogenic substrate fluorescence; at 12.3 µM; active compounds read high.

Row | Structure (SMILES) | inhibition
1 | O=[N+]([O-])c1cc([N+](=O)[O-])c(C(F)(F)F)c([N+](=O)[O-])c1O | inactive: -6.44%
